Test results published in US20220401592A1, “LOW MOLECULAR WEIGHT AND POLYAMIDOAMINE (PAMAM) DENDRIMER BASED PSMA-SPECIFIC DUAL CONTRAST AGENTS FOR OPTICAL AND PHOTOACOUSTIC IMAGING AND THERANOSTIC AGENTS FOR TREATING PROSTATE CANCER” (priority 2021, published 2022).

Assay: PA tubing phantom experiment
Conditions: maximum ratio, at 710 nm

For “G4(Cy7.5)s(SA-KEU)12(Bdiol)52 [Conjugate V]”, the “ratio of PA intensity to I in 700-750 nm range” value was “up to 203.66%”.

Assay: Spectrophotometric test (UV-Vis optical absorbance) of conjugates
Conditions: 650-950 nm; same total amount of conjugated Cy7.5 dye

Compared with “G4(Cy7.5)6(SA-KEU)9(Bdiol)53 [Conjugate IV]”, “G4(Cy7.5)s(SA-KEU)12(Bdiol)52 [Conjugate V]” is higher in “maximum optical absorbance as % of the maximum optical absorbance of I (779 nm)” value (“maximum optical absorbance as %” below): 32.3% for the first, 55.5% for the second.

Going from “G4(NH2)13(Cy7.5)6(Bdiol)45 [Conjugate VI]” to “G4(NH2)20(Cy7.5)2(SA-KEU)10(Bdiol)32 [Conjugate II]”, the “maximum optical absorbance as %” value falls from 26.3% to 24.4%.

For “G4(NH2)(Cy7.5)4(SA-KEU)9(Bdiol)30 [Conjugate III]”, the “maximum optical absorbance as %” value was 14.8%.
